Data: patent US20260384765A1, “ANTHRANILATE SYNTHASE MUTANT AND USE THEREOF” (published 2026)

Experiments:
[1] = target: TrpE (S40M) (anthranilate synthase mutant) (Escherichia coli, UniProt P00895, S40M); assay: Determination of tryptophan inhibition curves, TrpE (S40M); conditions: role: inhibitor, substrate chorismate 300 μM, pH 9.0
Description: (§1) Experimental steps: a reaction buffer was prepared to contain 100 mM NH4Cl, 10 mM MgCl2, 20 mM Tris-HCl, and 0.1 mM ethylenediaminetetraacetic acid (EDTA), and the pH was adjusted to 9.0. 50 ml of the buffer was prepared into an 8 g/L tryptophan buffer, and the pH was adjusted to 9.0. The buffers prepared in the previous two steps were mixed in proportion to obtain tryptophan buffers having different concentrations. In a completely black, opaque microplate, 200 μl of tryptophan buffers having different concentrations were added, and the mutant enzyme solution prepared in Example 2 was added to a final concentration of 0.1 μM, followed by incubation at 30 °C for 10 min. Chorismate at a final concentration of 300 μM (large excess) was added to initiate the reaction. A fluorescence microplate reader was used to measure the fluorescence value at 400 nm after excitation at 320 nm, with detection performed once every ten seconds. The microplate reader automatically plotted a curve of fluorescence value over time. The concentration of the reaction product anthranilate and the fluorescence value were in a linear relationship when the anthranilate concentration was within 0-50 μM. The initial slope of the curve plotted by the microplate reader when the tryptophan concentration was 0 was defined as enzyme activity=1.0, and the ratio of the slope under different tryptophan concentrations to the slope without feedback inhibition was defined as relative enzyme activity. The inhibition constant Ki value was calculated by fitting using the formula Y=(1−((((Et+X+(Ki*(1+(S/Km))))−(((Et+X+(Ki*(1+(S/Km))))^2)−4*Et*X)^0.5))/(2*Et))), wherein Y is enzyme activity, Et is enzyme concentration, X is inhibitor concentration, S is substrate concentration, and Km is the Michaelis constant of the enzyme.

[2] = target: TrpE (S40M/S94N) (anthranilate synthase mutant) (Escherichia coli, UniProt P00895, S40M/S94N); assay: Determination of tryptophan inhibition curves, TrpE (S40M/S94N); conditions: role: inhibitor, with reference to Examples 2 and 3 (substrate chorismate 300 μM; pH 9.0; 30 °C)
Description: as §1, with “Chorismate at a final concentration of 300 μM (large excess) was added to initiate the reaction.” left out, “The inhibition constant Ki value was calculated by fitting using the formula Y=(1−((((Et+X+(Ki*(1+(S/Km))))−(((Et+X+(Ki*(1+(S/Km))))^2)−4*Et*X)^0.5))/(2*Et))), wherein Y is enzyme activity, Et is enzyme concentration, X is inhibitor concentration, S is substrate concentration, and Km is the Michaelis constant of the enzyme.” left out

[3] = target: TrpE (S40F) (anthranilate synthase mutant) (Escherichia coli, UniProt P00895, S40F); assay: Determination of tryptophan inhibition curves, TrpE (S40F); conditions: role: inhibitor, substrate chorismate 300 μM, enzyme 0.1 μM, pH 9.0, 30 °C
Description: as §1, with “Chorismate at a final concentration of 300 μM (large excess) was added to initiate the reaction.” left out, “The inhibition constant Ki value was calculated by fitting using the formula Y=(1−((((Et+X+(Ki*(1+(S/Km))))−(((Et+X+(Ki*(1+(S/Km))))^2)−4*Et*X)^0.5))/(2*Et))), wherein Y is enzyme activity, Et is enzyme concentration, X is inhibitor concentration, S is substrate concentration, and Km is the Michaelis constant of the enzyme.” left out

[4] = target: wild-type TrpE (anthranilate synthase) (Escherichia coli, UniProt P00895); assay: Determination of tryptophan inhibition curves, wild-type TrpE; conditions: role: inhibitor, substrate chorismate 300 μM, enzyme 0.1 μM, pH 9.0, 30 °C
Description: as §1, with “Chorismate at a final concentration of 300 μM (large excess) was added to initiate the reaction.” left out, “The inhibition constant Ki value was calculated by fitting using the formula Y=(1−((((Et+X+(Ki*(1+(S/Km))))−(((Et+X+(Ki*(1+(S/Km))))^2)−4*Et*X)^0.5))/(2*Et))), wherein Y is enzyme activity, Et is enzyme concentration, X is inhibitor concentration, S is substrate concentration, and Km is the Michaelis constant of the enzyme.” left out

N[C@@H](Cc1c[nH]c2ccccc12)C(=O)O
Ki for inhibition by tryptophan relative to that of S40F ([1]; S40M vs S40F): about 1.7 times
increase of inhibition constant Ki for tryptophan compared with the wild type ([1]; S40M vs wild type): more than 400 fold
feedback inhibition constant Ki of tryptophan ([1]; S40M, enzyme 0.1 μM, 30 °C): 457.9 µg/mL
feedback inhibition constant Ki of tryptophan [2]: 587.2 µg/mL
feedback inhibition constant Ki of tryptophan [3]: 275.2 µg/mL
feedback inhibition constant Ki of tryptophan [4]: 1.1 µg/mL
